These are literature values, as cited in patent publication US20040006094A1, “4-pyrimidinamine derivatives, pharmaceutical compositions and related methods” (priority 2000, published 2004).

The chains behind the UniProt entries cited, without tags or fusion partners.
UniProt Q16539, whole entry: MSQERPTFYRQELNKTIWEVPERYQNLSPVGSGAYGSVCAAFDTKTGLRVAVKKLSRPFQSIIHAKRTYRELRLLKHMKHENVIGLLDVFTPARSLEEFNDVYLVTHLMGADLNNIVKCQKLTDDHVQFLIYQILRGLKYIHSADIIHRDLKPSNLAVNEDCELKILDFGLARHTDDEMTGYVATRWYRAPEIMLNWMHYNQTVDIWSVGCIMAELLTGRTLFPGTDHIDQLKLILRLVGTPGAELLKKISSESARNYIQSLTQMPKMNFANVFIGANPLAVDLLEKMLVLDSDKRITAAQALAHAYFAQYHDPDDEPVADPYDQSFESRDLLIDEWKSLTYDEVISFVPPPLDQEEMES

Structures are written as SMILES.

The target of this series is p38 kinase (Homo sapiens, UniProt Q16539). The note with it: cited from earlier work.

`CCc1[nH]c(-c2ccc(OC)cc2)nc1-c1ccncc1` [SB202474]: the “Activity, p38 kinase” value is listed as “Inactive”.
